## Yeast mating assay 1: variants of the scFv Ab-14

Target peptide (SARS-CoV-2 spike, HR2 region): PDVDLGDISGINAS

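Variants in AAYL49 differ from the parent at up to three CDR positions; double and triple changes were sampled at random. In AlphaSeq, yeast of one mating type display the scFv and yeast of the other type display the target. The frequency of each diploid, read from paired DNA barcodes, reflects how well the two displayed proteins bind. Read counts were normalised to the haploid input and turned into Kd by a linear fit to BCL2-family pairs of known affinity, for each replicate. Mating was done three times.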

Ab-14 is the parent antibody, in scFv form: VH, then the linker GGGGSGGGGSGGGGS, then VL. The light chain is unchanged in all variants.
VH: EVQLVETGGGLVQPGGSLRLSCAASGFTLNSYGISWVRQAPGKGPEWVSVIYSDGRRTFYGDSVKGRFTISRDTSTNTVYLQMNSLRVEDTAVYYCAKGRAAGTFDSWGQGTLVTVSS
VL: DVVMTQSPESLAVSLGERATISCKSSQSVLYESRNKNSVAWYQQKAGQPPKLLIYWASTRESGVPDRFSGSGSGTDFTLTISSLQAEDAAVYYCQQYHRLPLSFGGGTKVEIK

Variants are written as CDR1, CDR2 and CDR3 of the heavy chain (limits as in the source). Parent: GFTLNSYGIS, VIYSDGRRTFYGDSVK, GRAAGTFDS. All variants listed here change Y60 of the VH, counted from its first residue. Values are apparent Kd, the geometric mean of the replicates that gave a signal; lower means stronger binding. "nd" means that the variant was in the library but no mating with the target was seen in any replicate; the authors take this as a sign of poor binding, and no number exists.

For GFTLNSYGIS / VIYSGGRRTFKGDSVK / GRAAGTFDS, the assay gave nd (0 of 3 replicates; controls 2 of 9).
For GFALHSYGIS / VIYSDGRRTFRGDSVK / GRAAGTFDS, the assay gave nd (0 of 3 replicates; controls 0 of 9).
For GFTLNSYGWS / VIYSDGRRTFAGDSVK / GRAPGTFDS, the assay gave nd (0 of 3 replicates; controls 2 of 9).
For GFTLNSYGIS / VQYSDGRRIFSGDSVK / GRAAGTFDS, the assay gave nd (0 of 3 replicates; controls 3 of 9).
For GFTLWSYGIS / VCYSDGRRTFDGDSVK / GRAAGTFDS, the assay gave nd (0 of 3 replicates; controls 0 of 9).
For GFTLNSDGIS / FIYSDGRRTFMGDSVK / GRAAGTFDS, the assay gave 5.3 µM (2 of 3 replicates; controls 2 of 9).
For GFTLNSYGIS / VIYSNGRRTFFGDSVE / GRAAGTFDS, the assay gave nd (0 of 3 replicates; controls 1 of 9).
For GFTLNSYGIS / VIYSDPRRTFFGDSVK / GRAARTFDS, the assay gave nd (0 of 3 replicates; controls 0 of 9).
For GFTCNSYGIS / VIYSDERRTFTGDSVK / GRAAGTFDS, the assay gave 2.2 µM (1 of 3 replicates; controls 0 of 9).
For GFTLNSYGIS / VMYSDGRRTFMGDSVK / GRAHGTFDS, the assay gave nd (0 of 3 replicates; controls 5 of 9).
For GFTLNSYGIS / VIYSDGRRTFGGDEVK / GRASGTFDS, the assay gave 1.3 µM (1 of 3 replicates; controls 2 of 9).
For GFTLNSYGIS / VIYHDGRRTFTGDSVK / GRAAGTFDS, the assay gave 2.7 µM (3 of 3 replicates; controls 1 of 9).
For GFTLNSYGIS / TIYSDGRRTFRGDSVK / GRAAGTFDS, the assay gave nd (0 of 3 replicates; controls 2 of 9).
For GFTLNSYGIT / VIMSDGRRTFGGDSVK / GRAAGTFDS, the assay gave nd (0 of 3 replicates; controls 1 of 9).
For GFTLNNYGIS / VIYSDGRRTFLGDSVK / GRAPGTFDS, the assay gave 750 nM (1 of 3 replicates; controls 1 of 9).
For GFTLNSYGDS / VIYSDGRRTFLGDSVP / GRAAGTFDS, the assay gave nd (0 of 3 replicates; controls 1 of 9).
For GFTLNSGGIS / VIYSDGRRTFRGDSVK / GRACGTFDS, the assay gave 980 nM (1 of 3 replicates; controls 0 of 9).
For GFTLNSYGIS / VIYSDGRRTFNGDIVK / GRAAGTFDS, the assay gave nd (0 of 3 replicates; controls 0 of 9).
For GFTLNSYGIS / VIQSDGRRTFKGDSVK / GRAAGTFDS, the assay gave nd (0 of 3 replicates; controls 0 of 9).
For GFTLMSYGIS / VIYSDGRRTFTGDSVK / GRAAGTFDS, the assay gave 2.4 µM (3 of 3 replicates; controls 1 of 9).
For GFTLNSYMIC / VIYSDGRRTFRGDSVK / GRAAGTFDS, the assay gave 11 µM (1 of 3 replicates; controls 0 of 9).
For GFTLNYYGIS / VIYSDGRRTFSGDSVK / GRAFGTFDS, the assay gave nd (0 of 3 replicates; controls 3 of 9).
For GFTLNSIGIS / VIYSDGRRTFWGDSVK / GRAAGQFDS, the assay gave 5.0 µM (1 of 3 replicates; controls 1 of 9).
For GFTLNSYGIS / VIYSDGARTFIGDSVK / GRAAGTFDS, the assay gave 230 nM (1 of 3 replicates; controls 1 of 9).
For GFTLNPYGID / VIYSDGRRTFQGDSVK / GRAAGTFDS, the assay gave nd (0 of 3 replicates; controls 1 of 9).
For GFTLNSYGIS / VIYSDGRRTFWGDSVK / GIAAVTFDS, the assay gave 680 µM (2 of 3 replicates; controls 6 of 9).
For GFTLNSYGIS / VIYSDGRRVFNGYSVK / GRAAGTFDS, the assay gave nd (0 of 3 replicates; controls 1 of 9).
For GFTLNSYGIS / VIRSDGRRTFVGDSVK / GRAAKTFDS, the assay gave nd (0 of 3 replicates; controls 2 of 9).
For GFTLNSYGIS / VWYSDGRRTFQGDSNK / GRAAGTFDS, the assay gave 4.7 µM (2 of 3 replicates; controls 1 of 9).
For GFTLNSYGIS / VVYSDGRRTFAGDSVK / GRAAGTFDS, the assay gave 3.2 µM (1 of 3 replicates; controls 5 of 9).
For GFILNSYGIS / VIYSDGRNTFHGDSVK / GRAAGTFDS, the assay gave nd (0 of 3 replicates; controls 0 of 9).
For GFTLNSYGIS / VIYSDLRRTFCGDSVK / CRAAGTFDS, the assay gave nd (0 of 3 replicates; controls 4 of 9).
For GFRLNSYGIS / VIYSDGRRTFLGDSVK / GRAAWTFDS, the assay gave nd (0 of 3 replicates; controls 0 of 9).
For GFNLNSYGIS / VIYSDGRRTFEGDSVK / GRAAGDFDS, the assay gave nd (0 of 3 replicates; controls 1 of 9).
For GFTLNSYGIS / VIYSDERRTFMGDSVK / GFAAGTFDS, the assay gave nd (0 of 3 replicates; controls 0 of 9).
For GFTLNSYGIS / VIYSDCRRTFGGDSVK / GRAAGTFDS, the assay gave nd (0 of 3 replicates; controls 1 of 9).
For GFTLNSYGIS / VIYSDGRRMFDGDSVK / GRMAGTFDS, the assay gave 23 µM (2 of 3 replicates; controls 4 of 9).
For GFTLNSYGIS / VIYSDGRRTFLNDSVK / GRAAGTFDS, the assay gave 15 µM (1 of 3 replicates; controls 1 of 9).

Excerpt, the final 3 entries:

{"CDR-H1": "GFTLNSYGIS", "CDR-H2": "VIYSDCRRTFGGDSVK", "CDR-H3": "GRAAGTFDS", "Kd (apparent)": "nd", "replicates with signal": "0/3", "control signals": "1/9"}
{"CDR-H1": "GFTLNSYGIS", "CDR-H2": "VIYSDGRRMFDGDSVK", "CDR-H3": "GRMAGTFDS", "Kd (apparent)": "23 µM", "replicates with signal": "2/3", "control signals": "4/9"}
{"CDR-H1": "GFTLNSYGIS", "CDR-H2": "VIYSDGRRTFLNDSVK", "CDR-H3": "GRAAGTFDS", "Kd (apparent)": "15 µM", "replicates with signal": "1/3", "control signals": "1/9"}

In this assay the parent's reference entry averaged 4.4 nM; its copy inside this library read 13 µM (one replicate of three). As a blank, each scFv also met three strains without target: over library AAYL49, 15% of these pairings were detected, typically at 11 µM and seldom below 680 nM. The control count says in how many pairings with the empty strains this scFv gave a signal.

Reference: Engelhart et al. 2022, doi:10.1038/s41597-022-01779-4. File: FLAb, binding data.